Yeast mating assay B: variants of the scFv Ab-14

Source: Li et al. 2023 (doi:10.1038/s41467-023-39022-2), MIT Lincoln Laboratory and A-Alpha Bio; data file from the FLAb repository.

Target peptide (SARS-CoV-2 spike, HR2 region): PDVDLGDISGINAS

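The starting antibody came from a phage panning campaign against this peptide. The variants were designed computationally from a first round of random CDR variants and then made and measured. Their group label is 14L_En_Gen (En: ensemble of fine-tuned language models; Gen: genetic algorithm). The scFvs were displayed on barcoded MATa yeast, the peptide on MATalpha yeast. Binding brings cells together so that they mate, and sequencing counts the barcode pairs among the diploids. Read counts were normalised to the haploid input and turned into Kd by a linear fit to BCL2-family pairs of known affinity, for each replicate. Mating was done six times.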

Parent scFv Ab-14: VH joined to VL by three GGGGS repeats. Changes lie in the light chain CDRs alone.
VH: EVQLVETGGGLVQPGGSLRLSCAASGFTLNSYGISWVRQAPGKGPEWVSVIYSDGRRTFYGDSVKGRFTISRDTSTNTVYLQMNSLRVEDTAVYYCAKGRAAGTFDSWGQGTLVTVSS
VL: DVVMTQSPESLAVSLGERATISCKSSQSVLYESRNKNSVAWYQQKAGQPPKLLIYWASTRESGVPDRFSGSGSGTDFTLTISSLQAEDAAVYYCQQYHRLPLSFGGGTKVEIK

Each variant is given by its three light chain CDRs, as the data file delimits them; those of the parent are KSSQSVLYESRNKNSVA, WASTRES, QQYHRLPLS. Numbers give log10(Kd / nM), so 0 is 1 nM and 3 is 1 µM. Smaller is tighter. The mean shown is taken over the replicates in which the pair was detected. An entry "nd" has no value in the source: the pair was not observed among the diploids in that replicate. This suggests poor binding but is not conclusive. Background: pairings of all light chain designs with three empty control strains gave a value in 4% of cases (median 2.64, 5th percentile 1.59). Values in that range, when seen in few replicates, are hard to tell from nonspecific mating. Also given: how often the same scFv was detected with the empty control strains.

MMSQVTGMGQRHYNNVA | QTSTREP | QQYDRLPLI: 0.55, 0.31, 0.43, 0.15, 0.34, 0.28 (mean 0.34; controls 2 of 18).
MISQLWNMGSFAINSVA | QASQRNE | QQYDRLPLM: 1.62, 1.55, 0.84, 1.05, 0.88, 1.19 (mean 1.19; controls 0 of 18).
KLSQMLHVTGVHSNNVA | ELTMRGN | QQYHRLPLS: 0.90, 0.94, 0.52, 1.08, 0.65, 1.52 (mean 0.94; controls 1 of 18).
KITATMRFEQKASNNIA | EVTQRSK | QQYYRLPLS: 1.10, 1.29, 0.46, 0.69, 0.68, 0.55 (mean 0.79; controls 0 of 18).
KVSEFPRGLMSRQDSIA | DNNTREN | QQYDRLPLS: nd, 1.55, 0.71, 1.43, 1.42, 1.75 (mean 1.37; controls 0 of 18).
QLYEMSYELSGKTHSVA | DNSTRGE | QQYFRLPLQ: 1.37, 1.92, 1.90, 1.30, 1.13, 1.12 (mean 1.46; controls 0 of 18).
KLAMYTGHMSVSKNNVA | EMETRMN | QQYDRLPLS: 0.48, 0.04, -0.07, -0.22, 0.14, 0.12 (mean 0.08; controls 1 of 18).
KLTMITGLEKVSGNNVA | EMETREK | QQYNRLPLA: 0.03, 0.11, 0.13, 0.01, 0.04, 0.09 (mean 0.07; controls 4 of 18).
KISQMARVGSTHGNSIA | EEQTRAK | QQYHRLPLS: nd, 0.22, 0.19, 0.88, 0.31, 1.03 (mean 0.53; controls 0 of 18).
KITATMRFEQKASNNIA | EVTTRSK | QQYVRLPLA: 0.27, 0.17, -0.21, 0.02, -0.13, 0.10 (mean 0.04; controls 0 of 18).
KISQMVRVGSTVSNSIA | EMVTRAN | QQYHRLPLS: 0.77, 0.94, -0.12, 0.21, 0.41, 0.50 (mean 0.45; controls 0 of 18).
MMSSLMGYESRNIQNVA | QTSTRES | QQYDRLPLI: 0.19, 0.53, 0.13, 0.15, 0.39, 0.52 (mean 0.32; controls 0 of 18).
MLSQMWAIGMKVSNSVA | QVSTRFE | QQYDRLPLE: nd, 2.23, 2.16, 1.43, 1.85, 2.09 (mean 1.95; controls 0 of 18).
TIGQSLMQGIRNRSNVA | EVSQRLN | QQYDRLPLM: 1.86, 1.94, 2.03, 1.98, 1.43, 1.83 (mean 1.84; controls 0 of 18).
MMSSLMGYESRHINNVA | QTTTRES | QQYDRLPLM: 0.48, 0.67, 0.10, 0.16, -0.02, 0.56 (mean 0.33; controls 0 of 18).
IVSQLMLWGAHVKNSIA | EAVTRLN | QQYDRLPLF: nd, nd, nd, nd, nd, nd (controls 0 of 18).
KITATMRFEQSKSNNIA | EVTTRSK | QQYYRLPLA: 1.33, 0.48, 0.24, 1.64, 2.15, 0.83 (mean 1.11; controls 0 of 18).
SISGFMKTLSAHKNNVA | DMTCRED | QQYDHLPLS: 0.07, 0.08, -0.10, 0.17, 0.09, 0.19 (mean 0.08; controls 2 of 18).
KIGMTLNQLYEKVNNVA | DLVERED | QQYHRLPLS: 0.63, 0.45, 0.42, 0.66, 0.43, 0.44 (mean 0.50; controls 1 of 18).
TLYGLTNSMSKNKDSVA | EMSTREA | QQYDRLPLM: 1.42, 0.60, 0.80, 0.51, 0.86, 1.02 (mean 0.87; controls 1 of 18).
KLSSVTGHMSMAKNNVA | EMVTREK | QQYNRLPLS: 1.31, 1.29, 1.07, 1.00, 1.52, 1.23 (mean 1.24; controls 1 of 18).
NIYQAMHTLMQVKNNIA | DVTNRNN | QQYHRLPLS: 0.90, 0.69, 0.53, 0.60, 0.57, 0.82 (mean 0.68; controls 0 of 18).
TISQMTSLFSQSINNVA | EVSMREK | QQYDRLPLI: 1.29, 1.45, 1.12, nd, 0.61, 1.98 (mean 1.29; controls 0 of 18).
TLSQMSGLEAVKHNNVA | ENSTREK | QQYDRLPLT: 1.36, 1.75, 2.57, 1.42, 1.82, 1.64 (mean 1.76; controls 0 of 18).
MLSEVLHMLGVMKNSIA | DLVIRAN | QQYHRLPLM: nd, nd, nd, nd, nd, nd (controls 0 of 18).
MMSQVTGLGQRHRNNVA | QTSTRME | QQYDRLPLI: 0.59, 0.74, 0.44, 0.37, 0.59, 0.57 (mean 0.55; controls 2 of 18).
MISQLMNFGTFAINSVA | QASLRCN | QQYDRLPLT: nd, nd, nd, nd, nd, nd (controls 0 of 18).
HMSALTLMGTRNRNSVA | QMTTREN | QQYDRLPLT: 0.71, 0.71, 0.32, 0.72, 0.41, 0.86 (mean 0.62; controls 2 of 18).
KLSSITGHMSMIKNNVA | EMETREN | QQYNRLPLA: 0.69, 0.22, 0.55, 0.79, 0.47, 0.53 (mean 0.54; controls 0 of 18).
KLGYNTGTESFRKDNIA | DNDLRED | QQYDRLPLS: 0.42, 0.43, 0.62, 0.18, 0.37, 0.96 (mean 0.49; controls 0 of 18).
MISQLMNMGQFAINSVA | QASIRNE | QQYDRLPLA: 1.08, 1.09, 0.56, 0.62, 0.82, 0.95 (mean 0.85; controls 2 of 18).

Picked from the list: the 3 lowest averages where every replicate gave a value.

The variant KITATMRFEQKASNNIA | EVTTRSK | QQYVRLPLA gave 0.27, 0.17, -0.21, 0.02, -0.13, 0.10 (mean 0.04; controls 0 of 18).
The variant KLTMITGLEKVSGNNVA | EMETREK | QQYNRLPLA gave 0.03, 0.11, 0.13, 0.01, 0.04, 0.09 (mean 0.07; controls 4 of 18).
The variant SISGFMKTLSAHKNNVA | DMTCRED | QQYDHLPLS gave 0.07, 0.08, -0.10, 0.17, 0.09, 0.19 (mean 0.08; controls 2 of 18).

In the paper, a design with two or fewer of six values counts as a poor binder. The range of this assay differs from that of the first round, and the authors advise against merging the two. Of ten entries with the parent sequence, four were seen in most replicates (averages 0.34 to 2.37), three in one and three in none, so single entries are noisy.